Experimental data from patent publication US20200377588A1, “Highly Versatile Method of Presenting Cyclic Peptide on Protein Structure” (The University of Tokyo, priority 2017, published 2020).

Assays:
Met-PA = target: T1, Met-PA (Homo sapiens, UniProt P08581); experiment: pull-down type binding experiment, Met-PA captured on NZ-1 Sepharose, SDS-PAGE; conditions: Example 4, HSA mutants, FIG. 17
T1 construct: made in house; host or cells: Expi293F cells (secreted, culture supernatant)

Plexin B1-Fc = target: T2, Plexin B1-Fc (Homo sapiens, UniProt O43157); experiment: pulldown, Plexin B1-Fc captured on protein A-Sepharose, SDS-PAGE; type: binding; conditions: Example 4, HSA mutants, FIG. 17
T2 construct: Protein A Sepharose that had captured a soluble receptor fragment Plexin B1-Fc therein
T2 sequence (O43157 20-1490 limits assumed): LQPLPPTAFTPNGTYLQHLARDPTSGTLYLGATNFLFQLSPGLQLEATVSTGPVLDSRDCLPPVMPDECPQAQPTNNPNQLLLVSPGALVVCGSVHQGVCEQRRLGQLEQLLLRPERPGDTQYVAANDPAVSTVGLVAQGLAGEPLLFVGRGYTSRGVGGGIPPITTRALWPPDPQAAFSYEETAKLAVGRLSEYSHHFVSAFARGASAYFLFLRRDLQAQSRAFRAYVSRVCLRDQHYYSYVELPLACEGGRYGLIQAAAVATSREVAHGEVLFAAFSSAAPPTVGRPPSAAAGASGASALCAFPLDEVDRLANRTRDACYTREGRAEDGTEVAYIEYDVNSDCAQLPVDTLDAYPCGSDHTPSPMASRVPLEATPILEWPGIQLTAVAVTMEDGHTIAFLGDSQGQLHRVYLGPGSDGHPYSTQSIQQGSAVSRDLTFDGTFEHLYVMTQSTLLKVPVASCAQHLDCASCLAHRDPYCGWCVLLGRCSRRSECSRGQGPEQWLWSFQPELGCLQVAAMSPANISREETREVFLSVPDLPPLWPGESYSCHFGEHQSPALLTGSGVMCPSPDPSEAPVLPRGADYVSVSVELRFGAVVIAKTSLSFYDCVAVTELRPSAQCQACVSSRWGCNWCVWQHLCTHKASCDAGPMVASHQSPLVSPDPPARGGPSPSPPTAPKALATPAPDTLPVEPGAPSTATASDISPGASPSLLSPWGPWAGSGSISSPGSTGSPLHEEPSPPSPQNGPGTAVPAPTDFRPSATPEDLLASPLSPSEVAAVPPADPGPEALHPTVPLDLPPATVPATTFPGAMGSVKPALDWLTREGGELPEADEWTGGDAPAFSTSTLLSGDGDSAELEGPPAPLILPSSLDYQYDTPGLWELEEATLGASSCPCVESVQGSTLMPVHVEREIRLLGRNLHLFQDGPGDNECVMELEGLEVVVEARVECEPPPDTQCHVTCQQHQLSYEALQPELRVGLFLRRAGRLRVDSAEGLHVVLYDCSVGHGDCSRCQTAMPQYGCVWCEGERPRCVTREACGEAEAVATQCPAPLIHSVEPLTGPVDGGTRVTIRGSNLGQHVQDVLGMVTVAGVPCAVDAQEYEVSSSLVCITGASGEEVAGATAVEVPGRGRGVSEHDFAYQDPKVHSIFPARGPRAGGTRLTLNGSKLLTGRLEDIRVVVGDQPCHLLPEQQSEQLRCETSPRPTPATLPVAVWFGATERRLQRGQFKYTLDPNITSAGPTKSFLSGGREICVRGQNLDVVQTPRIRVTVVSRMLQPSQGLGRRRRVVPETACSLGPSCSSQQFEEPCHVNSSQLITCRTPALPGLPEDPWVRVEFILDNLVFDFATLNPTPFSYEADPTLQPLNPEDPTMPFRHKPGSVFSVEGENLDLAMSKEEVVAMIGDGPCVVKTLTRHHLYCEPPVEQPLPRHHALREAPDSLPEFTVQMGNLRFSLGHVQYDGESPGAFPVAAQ
Excerpt: Binding of the resulting cyclic peptide fusion proteins (HSA mutants) to a soluble receptor fragment of Plexin B1 or Met was confirmed by the method described above in Example 1. It is to be noted, however, that for the mP6-9 peptide fusion protein, not Plexin B1-PA but Plexin B1-Fc protein was used as a binding molecule and as pulldown beads, not NZ-1-Sepharose but protein A-Sepharose was used.
Binding of the resulting cyclic peptide fusion protein (RBP mutant) to Protein A Sepharose that had captured a soluble receptor fragment Plexin B1-Fc therein by a method similar to that described above was studied by the pulldown method.
Binding of the resulting cyclic peptide fusion protein (PLAP mutant) to Protein A Sepharose that had captured a soluble receptor fragment Plexin B1-Fc or Met-Fc therein by the method described above I Example 1 was studied by the pulldown method.

HSA: full-length human serum albumin with Hisx8 and Myc tags, no cyclic peptide fused; control
binding to Met-PA (pulldown) (Met-PA): does not bind to the binding molecule
binding to Plexin B1-Fc (pulldown) (Plexin B1-Fc): does not bind to the binding molecule
